Measurements taken from patent publication US8354412B2, “Beta-3 receptor ligands and their use in therapy” (Universita' Degli Studi di Bari, priority 2006, dated 2013).

The chains behind the UniProt entries cited, without tags or fusion partners.
UniProt P08588, whole entry: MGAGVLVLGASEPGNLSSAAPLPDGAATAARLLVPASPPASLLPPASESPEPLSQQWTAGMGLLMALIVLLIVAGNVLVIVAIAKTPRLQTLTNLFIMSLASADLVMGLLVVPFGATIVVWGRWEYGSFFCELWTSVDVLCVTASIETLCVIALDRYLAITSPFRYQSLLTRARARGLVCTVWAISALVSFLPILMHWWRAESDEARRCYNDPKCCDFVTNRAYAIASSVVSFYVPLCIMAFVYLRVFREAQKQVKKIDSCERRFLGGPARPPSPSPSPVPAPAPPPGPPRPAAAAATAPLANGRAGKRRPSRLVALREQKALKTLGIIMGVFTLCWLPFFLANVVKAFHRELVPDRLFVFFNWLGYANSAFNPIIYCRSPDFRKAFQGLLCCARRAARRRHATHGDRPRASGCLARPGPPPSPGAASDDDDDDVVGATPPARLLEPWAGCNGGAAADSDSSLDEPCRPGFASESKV

Molecular target: T1, cloned human β1-adrenergic receptor (Homo sapiens, UniProt P08588)
T1 construct: expressed in transfected cells; host or cells: CHO (membranes)
Test: [3H]-dihydroalprenolol binding on CHO cell membranes, β1-adrenergic receptor
Conditions: saturation experiments on CHO membranes; read-out: KD in CHO expressing the β1-adrenergic receptor
Experimental: To verify the selectivity of the ligands (I) for the cloned human adrenergic β1- and β2 receptors, compounds 1a-1h were submitted to binding tests (Table 2). At the concentration of [^3H]-dihydroalprenolol used in the binding experiments (see biological methods section), the specific bonds represent approximately 76% and 85% of the total binding respectively. […]. […]
The preconfluence cells were washed with cold PBS, removed from the surface of the plate, collected in cold lysis buffer (10×10^6/ml; 5 mM Tris/HCl, 2 mM EDTA, pH 7.4 at 4° C.) and homogenized with a Brinkmann Polytron (5 for 3×10 secs). […] The resultant membrane pellet was resuspended in cold incubation buffer (50 mM Tris/HCl, 10 mM MgCl2, pH 7.4 for the binding experiments on the β1-adrenergic receptors; 50 mM Tris/HCl, pH 7.4 for the binding experiments of on the β2-adrenergic receptors) and its protein content was then determined. […]
The saturation experiments were conducted by incubating the cell membranes (50 μg of protein) in 500 μl of incubation buffer, containing increasing concentrations of [^3H]-dihydroalprenolol (0.1 nM, 0.5 nM, 1 nM, 3 nM, 5 nM, 10 nM). […] The residual radioactivity of the filters was measured using a Beckmann LS6500 Multi-purpose scintillator. […]

Structure (SMILES): C=CCc1ccccc1OCC(O)CNC(C)C (stereo not shown) [alprenolol, reference compound]
- Kd: 12.5 nM
